Reference: patent US9643960B2, “Procaspase activating compounds” (The Board of Trustees of the University of Illinois, priority 2009, dated 2017)

Target: T1, caspase-3 (Homo sapiens, UniProt P42574)
T1 construct: Active caspase-3 is a homodimer of heterodimers and is produced by proteolysis of procaspase-3; 6xHis (C); made in house; host or cells: Escherichia coli BL21(DE3), plasmid pHC332
T1 sequence (P42574 29-175 limits assumed): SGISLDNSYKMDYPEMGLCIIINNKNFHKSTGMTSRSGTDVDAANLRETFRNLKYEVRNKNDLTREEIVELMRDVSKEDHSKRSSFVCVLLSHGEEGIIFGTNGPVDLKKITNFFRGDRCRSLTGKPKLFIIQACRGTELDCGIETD
T1 sequence (P42574 176-277 limits assumed): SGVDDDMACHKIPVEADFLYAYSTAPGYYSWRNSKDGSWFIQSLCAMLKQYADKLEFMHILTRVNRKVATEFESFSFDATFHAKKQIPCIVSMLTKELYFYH
Assay: Caspase-3 activity assay (relief of zinc mediated inhibition)
Type: biochemical
Conditions: read-out: Caspase-3 (% Activation at 10 μM)
Description: Caspase-3 Activity Assays—Zinc-free stocks (2×) of caspase-3 (1 μM) were prepared in Caspase Activity Buffer. Compound stock solutions were made (2×) at various concentrations from 200 μM to 200 nM in Caspase Activity Buffer. […] The plates were incubated at room temperature for 30 minutes. […] The data for each compound concentration (4 wells) was averaged and the percent activity was plotted as a function of compound concentration. The data was analyzed using Table Curve 2D and fitted to a logistical dose-response curve. […] The percent activity at 10 μM was determined for each compound and reported as an average of the three replicate experiments with the corresponding SEM.

How did the activation at 10 µM turn out when `C=CCc1cccc(/C=N/NC(=O)CN2CCN(Cc3ccccc3)CC2)c1O` [PAC-1] was run?
Its activation at 10 µM is 45.8 ± 4.8%.
